Patent publication US20190134000A1, “COMPOUNDS TO PROMOTE NORMAL PROCESSING OF APP” (Buck Institute for Research on Aging, priority 2016, published 2019)

Test: in vitro
Conditions: human
Experimental: The second batch of C41 was tested for plasma protein binding, ADME-tox screening (microsomal intrinsic clearance), and ADME-tox screening (CYP inhibition screen). PK in rats was determined to determine a dose of non-GLP Pharm-Tox screening. Additionally, acute toxicity in rats (pre-subchronic toxicity) and non-GLP subchronic toxicity was determined.

`CC(C)NCC(O)COc1cccc2ccccc12` (stereo not shown) [propranolol, reference compound] gave a recovery of 96%.
